For orientation: Ki means the dissociation constant of the complex between target and ligand, obtained from inhibition or displacement.

Assay [1] concerns the target T1, recombinant α1a-adrenoceptor (UniProt P35348).
T1 sequence (P35348 1-466): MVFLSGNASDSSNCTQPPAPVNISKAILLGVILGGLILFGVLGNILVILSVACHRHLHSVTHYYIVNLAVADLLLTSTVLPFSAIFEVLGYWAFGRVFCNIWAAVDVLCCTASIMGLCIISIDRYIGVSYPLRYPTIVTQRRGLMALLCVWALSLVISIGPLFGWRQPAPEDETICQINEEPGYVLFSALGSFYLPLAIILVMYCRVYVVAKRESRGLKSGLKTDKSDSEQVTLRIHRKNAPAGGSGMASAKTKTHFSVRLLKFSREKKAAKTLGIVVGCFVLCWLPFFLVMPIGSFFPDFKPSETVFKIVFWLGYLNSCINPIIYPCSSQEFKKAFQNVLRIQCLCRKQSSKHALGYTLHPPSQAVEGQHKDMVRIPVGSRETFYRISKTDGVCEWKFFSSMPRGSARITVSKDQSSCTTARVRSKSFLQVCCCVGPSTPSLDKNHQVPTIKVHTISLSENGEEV
The following applies: read-out: Affinity for recombinant α1a-adrenoceptor subtype, Ki; [3H]prazosin, membranes of transfected cells; mean Ki.

Assay [2] addresses recombinant α1d-adrenoceptor (UniProt P25100). Particulars: read-out: Affinity for recombinant α1d-adrenoceptor subtype, Ki; [3H]prazosin, membranes of transfected cells; mean Ki.
Assay [3] concerns prostatic urethral pressure (hypogastric-nerve stimulation). The following applies: anaesthetised dogs, i.v.; data from Leonardi et al. 1997; cited from earlier work.

On to `COc1ccccc1N1CCN(CCCNC(=O)c2cccc3c(=O)c(C)c(-c4ccccc4)oc23)CC1` [Compound A], for which the Ki came out at 0.65 nM in assay [1] and 1.51 nM in assay [2].

`COc1cc2nc(N3CCN(C(=O)c4ccco4)CC3)nc(N)c2cc1OC` [prazosin]: the “UP ID50 HYP: dose inhibiting by 50% the urethral contractions induced by hypogastric-nerve stimulation” value in assay [3] is 0.01 mg/kg.
